Measurements as given in patent US7166694B2, “Vaccine against cancerous diseases which is based on mimotopes of antigens expressed on tumor cells” (priority 2000, dated 2007).

Tested on: membranes of the Her-2/neu negative cell line HTB132
Assay: ELISA of antibody binding to membranes of the Her-2/neu negative cell line HTB132
Protocol: The wells of a 96-well ELISA plate (Nunc) were coated with membrane fractions of the Her-2/neu overexpressing cell line SKBR3 and as a control for non-specific antibody bonds with membrane fractions of the Her-2/neu negative cell line HTB 132 in PBS overnight.
The next day, non-specific binding sites were blocked by 3 percent BSA in PBS. Herceptin as well as herceptin after preincubation with relevant and irrelevant phage mimotopes or by mimotopes on KLH as well as on KLH alone were applied to the coated, blocked ELISA plate in a repeated test. […] HRP enters into a color reaction with the substrate. The result of this color reaction can be quantified by photometer. The absorption coefficient of 450/630 nm (OD) is determined.

Substance: Herceptin: humanized monoclonal antibody obtained from mice, effective against the antigen HER-2/neu, from Genentech Inc.
- reaction on membranes of the Her-2/neu negative cell line HTB132: no reaction
